Test results from patent US20060079453A1, “Hla binding peptides and their uses” (priority 2002, published 2006).

Sequences of proteins named here, by UniProt entry; tags and fusion partners are left off. A change or cut given only in a name is not applied to a line headed by its entry. Residues count along the entry.
UniProt Q30154, 30-266: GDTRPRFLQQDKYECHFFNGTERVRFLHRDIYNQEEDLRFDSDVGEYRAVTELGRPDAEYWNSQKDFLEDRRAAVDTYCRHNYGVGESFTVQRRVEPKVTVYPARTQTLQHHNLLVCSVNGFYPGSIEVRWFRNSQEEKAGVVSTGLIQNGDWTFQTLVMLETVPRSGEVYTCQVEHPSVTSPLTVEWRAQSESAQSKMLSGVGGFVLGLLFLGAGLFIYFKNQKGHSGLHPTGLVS
UniProt P01889, 25-362: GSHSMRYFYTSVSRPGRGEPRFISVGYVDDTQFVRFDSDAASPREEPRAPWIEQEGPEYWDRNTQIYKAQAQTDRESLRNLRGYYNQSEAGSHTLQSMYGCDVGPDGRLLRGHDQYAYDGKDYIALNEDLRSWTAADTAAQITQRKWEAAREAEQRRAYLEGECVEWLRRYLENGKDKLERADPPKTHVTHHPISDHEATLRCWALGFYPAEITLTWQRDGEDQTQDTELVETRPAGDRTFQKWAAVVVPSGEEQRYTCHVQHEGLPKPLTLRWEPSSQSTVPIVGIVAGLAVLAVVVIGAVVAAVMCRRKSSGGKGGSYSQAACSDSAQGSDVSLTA
UniProt P01897, 25-362: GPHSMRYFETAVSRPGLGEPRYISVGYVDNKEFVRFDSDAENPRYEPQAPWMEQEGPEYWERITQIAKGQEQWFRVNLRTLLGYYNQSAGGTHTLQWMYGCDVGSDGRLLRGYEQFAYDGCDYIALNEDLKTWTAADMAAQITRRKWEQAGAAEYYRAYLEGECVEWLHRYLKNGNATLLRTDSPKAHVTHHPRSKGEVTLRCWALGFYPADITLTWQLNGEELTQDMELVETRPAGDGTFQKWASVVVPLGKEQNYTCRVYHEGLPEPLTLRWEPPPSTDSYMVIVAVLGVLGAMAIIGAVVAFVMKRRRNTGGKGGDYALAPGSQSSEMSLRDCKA

Key:
[1] = target: HLA-DR DRB1*0101 (DR1) (Homo sapiens, UniProt P01903+P01911, A100R/D57E/F55L/F60I/F76Y/I96L/L162R/M171V/P40L/Q125E/R42F/V115G/Y59C); assay: biochemical; assay type: binding; conditions: DRB1 *0101
[2] = target: HLA-DQ DQA1*0301/B*0301 (DQ7) (Homo sapiens, UniProt P01909+P01920, A209T/C70Q/DUP78-78/E183D/F237L/G63E/I129T/K197E/L178F/L74F/L98V/Q57E/Q76R/S185I/S97I/T49S/V73L); assay: biochemical; assay type: binding
[3] = target: HLA-DR DRB1*0901 (DR9) (Homo sapiens, UniProt P01903+P01911, A100R/A103E/D57H/D86V/F55Y/F60I/F76Y/I96F/K127E/L162R/M171V/P40D/Q125H/Q99R/R33Q/R42F/S133A/S66N/T210M/V115G/W38K/Y107V/Y59G/Y89S); assay: biochemical; assay type: binding; conditions: DRB1 *0901
[4] = target: HLA-DQ DQA1*0301/B*0302 (DQ8) (Homo sapiens, UniProt P01909+P01920, A209T/A45G/C70Q/D89A/DUP78-78/E183D/E77G/F237L/G63E/H199R/I129T/K197E/L178F/L74F/L98V/Q57E/Q76R/S185I/S97I/T217I/T49S/V73L/Y58L); assay: biochemical
[5] = target: HLA-DR DRB1*0802 (DR8) (Homo sapiens, UniProt P01903+P01911, A100R/A103L/A169T/F76Y/H45Y/I96F/K41T/L162R/M171V/P40S/Q125H/Q178H/Q39Y/Q99D/R218S/R42G/S66Y/V115G/W38E); assay: biochemical; assay type: binding
[6] = target: HLA-DR DRB1*0401 (DR4) (Homo sapiens, UniProt P01903+P01911, A100K/A169T/F76Y/I96L/K127E/L162R/M171V/N62H/P40V/Q125Y/R42H/S133A/S149N/S66Y/V115G/V209L/W38E); assay: biochemical; assay type: binding; conditions: DRB1 *0401
[7] = target: HLA-DR DRB5*0101 (DR51) (Homo sapiens, UniProt P01903+Q30154); assay: biochemical; assay type: binding; conditions: DRB5 *0101
[8] = target: HLA-DQ DQA1*0501/B*0201 (DQ2) (Homo sapiens, UniProt P01909+P01920, A45G/A70V/D89A/E106A/E77G/E98D/H199R/L107V/N214S/P84L/P87L/T103K/T109R/T172A/T60S/V78E/V99I/Y58L/Y62S/Y69I/Y79F); assay: biochemical
[9] = target: HLA-DR DRB1*1101 (DR11) (Homo sapiens, UniProt P01903+P01911, A100R/A169T/A87E/I96F/K41T/L162R/M171V/P40S/Q125H/Q178H/Q39Y/Q99D/R42S/S66Y/T262R/V115G/W38E); assay: biochemical; assay type: binding; conditions: DRB1 *1101
[10] = target: HLA-B*0702 (Homo sapiens, UniProt P01889); assay: biochemical; conditions: B*0702 binding affinity (IC50)
[11] = target: HLA-B*5401 (Homo sapiens, UniProt P01889, A329T/C349S/D138N/D201E/E176V/E187T/E204Q/E69G/I76V/K202T/L119W/R155S/R180L/S121T/S35A/S48A/V127L/V306I/V36M/Y140L); assay: biochemical; conditions: B*5401 binding affinity (IC50)
[12] = target: HLA-B*5301 (Homo sapiens, UniProt P01889, A329T/A93T/A95T/C349S/D201E/D98Y/E176V/E187L/E204Q/E69T/G107R/I218V/K202T/L105A/L119I/N104I/Q94N/R106L/R155S/R180L/S101N/S121R/S35A/S48A/T118I/V127L/V306I/V36M/Y140S/Y91F); assay: biochemical; conditions: B*5301 binding affinity (IC50)
[13] = target: HLA-B*5101 (Homo sapiens, UniProt P01889, A329T/A93T/A95T/C349S/D138N/D201E/D98Y/E187L/E204Q/E69T/G107R/I218V/K202T/L105A/L119W/N104I/Q94N/R106L/R155S/R180L/S101N/S121T/S35A/S48A/V306I/V36M/Y195H/Y91F); assay: biochemical; conditions: B*5101 binding affinity (IC50)
[14] = target: H-2Ld (Mus musculus, UniProt P01897); assay type: binding, murine
[15] = test system: HLA-DR DRB5*0201; assay type: binding, human; conditions: read-out: DRB5 *0201

For `CC[C@H](C)[C@H](NC(=O)[C@H](Cc1ccc(O)cc1)NC(=O)[C@H](C)NC(=O)[C@H](CCC(=O)O)NC(=O)[C@H](CCC(=O)O)NC(=O)[C@H](Cc1ccccc1)NC(=O)[C@H](CCC(=O)O)NC(=O)[C@H](CCC(N)=O)NC(=O)[C@H](Cc1ccc(O)cc1)NC(=O)[C@@H](NC(=O)[C@H](CC(=O)O)NC(=O)[C@H](Cc1ccccc1)NC(=O)[C@H](C)NC(=O)[C@H](CC(C)C)NC(=O)[C@@H](N)CCC(N)=O)[C@@H](C)O)C(=O)O`, the IC50 [1] was > 20.5 µM, the IC50 [2] was > 89.3 µM and the IC50 [3] was > 59.5 µM. The IC50 [4] was 673 nM, the IC50 [5] was > 33.3 µM and the IC50 [6] was > 10.7 µM. For the same molecule, the IC50 [7] was > 38.6 µM, the IC50 [8] was 35 nM and the IC50 [9] was > 15.4 µM.
`CC(C)C[C@H](NC(=O)[C@H](Cc1ccccc1)NC(=O)[C@H](C)NC(=O)[C@H](CCCCN)NC(=O)[C@H](Cc1ccc(O)cc1)NC(=O)[C@@H](NC(=O)[C@@H]1CCCN1C(=O)[C@@H](N)CO)[C@@H](C)O)C(=O)O` was tested, and the IC50 [10] was 109 nM, the IC50 [11] was 58.7 µM and the IC50 [12] was 54.9 µM. For the same molecule, the IC50 [13] was 4.67 µM.
Work on TPQSLDYWWTSL yielded an IC50 [14] of 1.6 nM.
Molecule TPQSRDSWWTSL has an IC50 [14] of 21 nM.
Molecule VDAQGTLSKIFKLGGRDSRS has an IC50 [15] of 1150 nM.
